Source: patent EP0585300B1, “GALANIN ANTAGONIST” (priority 1991, dated 1997)

Columns and labels:
[1] = test system: scopolamine-induced release of ACh; assay: Microdialysis: scopolamine-induced release of ACh in vivo, ventral hippocampus; set-up: species or system rat; conditions: galanin 1.56 nmoles i.c.v. 2 min before scopolamine 0.3 mg/kg s.c.; n=2 rats
Method: 2) Galanin inhibits acetylcholine release, measured according to Fisone G., et al (Proc. Natl. Acad. Sci. vol 84, 1987, 7339-7343). By using substantially the same procedure as the cited Fisone G., et al, a peptide according to the invention, M15, is now shown to counteract the inhibitory effects of galanin on the scopolamine-induced release of acetylcholine in vivo.
Surgery and basic methodology. Experiments were carried out with female CD-COBS (Charles River, Como, Italy) rats, weighing 200-260 g. Animals were anesthetized with equitensin (1% pentobarbital, 4% chloral hydrate). […] The microdialysis probe extended 3 mm beyond the end of the guide cannula; it was perfused at a constant rate of 2 µl(min with Ringer's solution (NaCl, 147 mM; CaCl2, 2.2 mM and KCl, 4.0 mM), containing 10 µM physostigmine sulfate and adjusted to pH 7.0 with NaOH. The initial 40 min perfusate was discarded. Thereafter, perfusates were collected every 20 min during a total perfusion period of 260 min. At the end of the collection period, the samples were immediately frozen on solid CO2 and lyophilized. Acetylcholine (Ach) content was quantified by a specific radioenzymatic method described in detail by Consolo S., et al. (J. Neurochem. […]
Galanin (1.56 nmoles) and M15 (3.12 nmoles) were injected i.c.v. […] ACh release was measured in the perfusate collected during the following 80 min, in four 20 min-fractions. […]

[2] = test system: flexor reflex; assay: Electrophysiological study: intrathecal galanin-induced facilitation of the flexor reflex; format: in vivo; conditions: 30 pmol galanin i.t.; decerebrated, spinalized rats
Excerpt: 3) Effects of intrathecal galanin and C-fiber stimulation on the flexor reflex has been described by Wiesenfeld-Hallin Z., et al (Brain Res. 486 (1989)205-213). By using substantially the same procedure as the cited reference, a peptide according to the invention, M15, is shown to have an antagonistic effect on intrathecal galanin-induced facilitation of the flexor reflex.
In acute experiments, the magnitude of the polysynaptic hamstring flexor reflex in response to activation of high threshold afferents was examined in decerebrated, spinalized, unanaesthetized rats by recording the electromyogram (EMG) from the posterior bicepts femoris/semitendinosus muscles. […]
The flexor reflex was recorded as EMG activity via stainless steel needle electrodes inserted in the ipsilateral hamstring muscles. […] The integrated reflex was recorded on a Gould chart recorder (Model 2400 S). During the experiments the heart rate and rectal temperature of the rat were monitored and maintained within normal limits. […]
A stable baseline reflex magnitude was established for at least 20 min before each i.t. injection or nerve CS. The effect of i.t. peptides or the nerve CS on the flexor reflex was expressed as percent change in reflex magnitude compared to baseline which was defined as 100%. […]
The antagonistic effect of intrathecal (i.t.) M-15 on the i.t. galanin-induced facilitation of the flexor reflex was measured. […]

[3] = test system: pancreatic beta-cells; assay: Galanin-inhibited glucose-induced insulin release (procedure of Ahrén et al.); format: cell-based, mice (ob/ob); conditions: galanin 10^-7 M, glucose 8.3 mM, 60 min incubation; glucose alone 34±2 µU/ml; N=32
Excerpt: 1) Galanin inhibits glucose-induced insulin release, measured according to Ahrén, B., et al (Biochemical and Biophysical Research Communications, Vol. 140. No. 3, 1986, 1059-1063). By using the same procedure as the cited Ahrén B., et al, a peptide according to the invention, M15, is now shown to block the galanin-inhibited insulin release in equimolar concentration.
Adult obese hyperglycemic mice (ob/ob) of both sexes were taken from a local non-inbred colony and starved overnight. The animals were killed by decapitation and the islets were isolated by collagenase isolation technique. A cell suspension was prepared essentially as described by Lehrnmark, Å., in Diabetologia 10, 1974, 431-438. Briefly, the islets were dissociated into single cells and small clusters by shaking in a Ca^2+-Mg^2+-deficient medium supplemented with EGTA (Ethylene glycol-bis(beta-aminoethyl ether)N,N,N',N',-tetra-acetic acid, SIGMA). […]
The kinetics of insulin release were studied by perfusing pancreatic beta-cells (approx. 1 x 10^6) with 20 mM or 5 mM glucose mixed with Bio-Gel P-4 polyacrylamide beads (200-400 mesh, Bio-Rad Lab., Richmond, Ca, U.S.A.) in a 0.5 ml column. The flow rate was 0.5 ml/min and 1-3 min fractions were collected and analyzed for insulin radioimmunologically, using crystalline rat insulin as a reference.

In the case of galanin, the “ACh release (pmoles of ACh in the 20 min fraction at the peak of the scopolamine-effect)” value [1] is reported as 6.9 pmol, the “peak facilitatory effect over baseline reflex magnitude” value [2] is reported as 167.0±42.8% and the insulin release [3] is reported as 3±1 µU/ml.
